Where “and” joins values, the source holds several entries; their conditions need not be identical. Equal values may be shown once.
Test: Enrichment/extraction of i-BuOH from aqueous solution by contact with tri-butyl phosphate
Type: physicochemical
Conditions: 25° C., equilibrium

In the case of CCCCOP(=O)(OCCCC)OCCCC, the “TBP Wt % in heavy phase” value is reported as 0.016 Wt % and 0.023 Wt % and 0.024 Wt %.

From patent US20140360376A1, “RECOVERY OF HIGHER ALCOHOLS FROM DILUTE AQUEOUS SOLUTIONS” (GEVO, INC., priority 2007, published 2014)
